From US20260364175A1, “COMPOSITIONS FOR DRUG ADMINISTRATION” (Aegis Therapeutics, LLC, priority 2018, published 2026)

Assays:
[1] = 25 mg in 0.5% tetradecyl-beta-D-maltoside, oral and rectal, vs 25 mg oral tablets
[2] = formulations specifically optimized for oral delivery; cited from earlier work

| Cmax [1] | Compound | oral bioavailability [2] |
| --- | --- | --- |
| increases Cmax | CNS(=O)(=O)Cc1ccc2[nH]cc(CCN(C)C)c2c1 [sumatriptan] |  |
|  | Calcitonin: calcitonin [reference compound] | 0.5-1.4% |
|  | insulin: insulin | 3% |
